US9656017B2, “Infusion delivery devices and methods” (priority 2014, dated 2017)

Assays:
[1] = subcutaneous (SC) injections; cited from earlier work
[2] = 24-hour plasma profiles of endogenous insulin and amylin in healthy adults, basal/bolus AUC analysis; type: in vivo, human; conditions: for In Vivo AUC pM × 24 hr: endogenous, molar
Source text: This difference in bolus/basal ratios was quantified by estimating the AUCs of the basal and bolus components, which would reflect the 24-hour hormone exposures attributable to these components. FIG. 6 and FIG. 7 show this basal/bolus allocation for amylin and insulin when the lowest observed levels of endogenous hormone are used as the upper boundary of the basal area.
Comparing AUCs results in the discovery that there is a striking difference between hormones with respect to the importance of bolus exposure compared to basal exposure, as summarized in Table 1. Measured as a ratio of bolus-to-basal exposure, the insulin bolus component is about three times as important as that of amylin. Measured as percentages of total daily hormone exposures, the “pancreatic insulin pump” secretes about twice as much insulin during mealtime boluses compared to basal, whereas the “pancreatic amylin pump” is set to the reverse ratio. See the example in Table 1.
Note that these calculations are based upon the specific clinical study shown in FIG. 5, and so the quantities presented here are used to illustrate the difference between insulin and amylin plasma levels. In other words, amongst other things, we have discovered that insulin is primarily a mealtime bolus hormone, whereas amylin is primarily a background basal hormone.
It is noted with regard to Table 1 that both the plasma insulin and amylin were measured with immunometric assays that are normally highly specific but are subject to cross reactions with other analytes that contain both binding sites. […] Either this is background amylin expression which been reported in non-beta-cell tissues, or it is nonspecific background noise in the amylin assay. In either case the basal amylin level in the above figures should therefore be reduced by about 17%. The same adjustment should also be made for any background insulin plasma levels. However, the insulin data is not available, so for this discussion the unadjusted plasma amylin basal level of 9.3 pM will be used in this example.
The following calculations are presented as an example of how appropriate amylin agonist doses can be determined. This insulin-dependent dosing can be achieved by calculating two separate components of pramlintide dosing: (1) the weight ratio of the daily basal component of amylin-to-insulin; and (2) the weight ratio of the daily bolus component of amylin-to-insulin.

[3] = plasma, healthy adults, based upon AUCs

Insulin
Bioavailability [1]: 70%
In Vivo AUC pM × 24 hr ([2]; basal component): 2045.34 pM × 24 hr
In Vivo AUC pM × 24 hr ([2]; bolus component): 3813.31 pM × 24 hr
Basal Level ([2]; plasma, healthy adults, endogenous hormone, based upon AUCs, unadjusted): 85.2 pM
Basal as % Total [2, 3]: 35%
Bolus/Basal Ratio [2, 3]: 1.9
